# Laboratory results: patent publication US20090172831A1, “Methods for the production of plants resistant to HPPD herbicides” (Syngenta Limited, priority 2000, published 2009)
# pKd: −log10 of the molar value.
# Molecular target: T1, Arabidopsis HPPD (Arabidopsis thaliana, UniProt P93836)
# T1 construct: made in house; host or cells: E. coli BL21 (DE3) codon+ RP
# T1 sequence (P93836 1-445): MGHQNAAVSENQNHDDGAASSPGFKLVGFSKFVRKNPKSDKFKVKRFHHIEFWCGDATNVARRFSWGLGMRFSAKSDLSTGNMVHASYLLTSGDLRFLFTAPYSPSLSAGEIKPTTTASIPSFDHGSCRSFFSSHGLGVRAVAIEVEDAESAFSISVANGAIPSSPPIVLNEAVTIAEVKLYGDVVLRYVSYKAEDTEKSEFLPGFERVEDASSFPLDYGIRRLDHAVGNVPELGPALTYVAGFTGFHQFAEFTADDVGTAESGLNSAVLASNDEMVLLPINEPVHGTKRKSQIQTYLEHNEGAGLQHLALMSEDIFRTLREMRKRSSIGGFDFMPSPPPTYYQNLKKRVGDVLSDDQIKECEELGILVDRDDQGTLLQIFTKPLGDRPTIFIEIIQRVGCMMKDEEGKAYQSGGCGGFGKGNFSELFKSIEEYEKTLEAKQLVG
# Assay: Dissociation of enzyme/inhibitor complexes by exchange with 14C-labelled inhibitor (koff; Kd = koff/kon)
# Assay type: binding
# Protocol: It will be appreciated that many suitable methods known in the art for determining such low koff values are suitable for working the current invention. These include measuring rates of exchange of radio or otherwise labelled inhibitors either with or away from the enzyme inhibitor complex. For example enzyme inhibitor complexes can readily be prepared by incubating HPPD preparations with labelled or unlabelled inhibitor and then, after suitable periods, optionally rapidly separating the thus formed enzyme inhibitor complex from excess inhibitor by any suitable method such as ultrafiltration, binding to filters or exchange down a gel filtration column. Exchange reactions with the, thus prepared enzyme inhibitor complex is then initiated by addition of, as appropriate, excess labelled or unlabelled inhibitor. […] Many methods such as radiometric, fluorimetric, NMR, fluorescence depolarisation, EPR, Mossbauer, UV/VIS spectrophotometry etc. or phonon resonance can, in principle, be used to monitor the enzyme/ligand exchange reactions and, particularly in this case where the enzyme contains an iron atom at the ligand binding site. Optionally, the monitoring method may be continuous (as, for example, with scintillation proximity/bead-based methods) or, discontinuous, based upon collection of data at various timepoints wherein samples are removed and the bound and unbound label components rapidly separated and quantitated.
# Values of koff can suitably be calculated by computer fitting based upon is numerical integration of the exchange data along with information on the active-site concentration of HPPD and upon kon values obtained as described below. […] In any event, koff values are always here calculated from the rate of the major slow exchange reaction.
# ^14C mesotrione is of specific activity 1.12 GBq/mmol. […] Following this initial binding reaction, exchange reactions are initiated by addition of cold mesotrione to a final concentration of 60 μM and 200 μl aliquots removed at various times to rapid chromatography down a NAP5 gel filtration column equilibrated in 50 mM BTP at pH 7 containing 0.1 M KCl, separation into fractions containing protein-bound or free radiolabel and liquid scintillation counting.
smiles,measurement,setting,value
"CS(=O)(=O)c1cc(C(F)(F)F)ccc1C(=O)C(C#N)C(=O)C1CC1 (centres unmarked) [Structure IV, 1-[2-(methanesulfonyl)-4-(trifluoromethyl)phenyl]-3-cyclopropyl-2-cyano-propane-1,3-dione]",pKd,value obtained + glycerol (in parentheses),10.77
same,pKd,"without glycerol, Kd = koff/kon",10.34
